Test results reported in patent US4965202A, “Biodegradation of 1,4-dibenz-oxazepine and related compounds” (dated 1990).

Tested on: Alcaligenes denitrificans denitrificans (CR-1)
Assay: Degradation of 1,4-dibenz-oxazepine and its proposed degradation products by CR-1, measured by HPLC
Details: for % Degradation/24 hrs.: CR-1, per 24 hrs, T82MV, HPLC

Compound	observed degradation by CR-1 (in words)	% Degradation/24 hrs. [%]
Cc1ccccc1O	except for o-cresol	0.0
Cc1cccc(O)c1O	has been degraded using CR-1	21.0
Oc1ccccc1O	observed degradation	3.4
